The species named for this test is Homo sapiens. Nature of the test: In vitro IC50 ratio against human CYP11B1 to that of human CYP11B2. A digest of the protocol:
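IC50 ratio from V79 MZh hamster fibroblasts expressing human CYP11B1 or CYP11B2, each incubated with [4-14C]-11-deoxycorticosterone (100 nM) and inhibitor at no fewer than three concentrations; steroids extracted into ethyl acetate and quantified by HPTLC with phosphoimaging.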

Take `Clc1ccc2c(c1)CC/C2=C/c1ccncc1`: the Selectivity ratio turned out to be 3.7.
In the case of `Clc1ccc2c(c1)CC/C2=C\c1ccncc1`, the Selectivity ratio worked out at 0.2.

For the origin of these results see ChEMBL document CHEMBL1142706, “Synthesis and evaluation of (pyridylmethylene)tetrahydronaphthalenes/-indanes and structurally modified derivatives: potent and selective inhibitors of aldosterone synthase” (J Med Chem, 2005).
